# Literature values, collected in patent publication US20240197683A1 (JIANGSU UNIVERSITY, priority 2023, published 2024).
# Conditions: cited from earlier work
smiles,measurement,value
"C[N+](C)(C)[C@@H](Cc1c[nH]c(=S)[nH]1)C(=O)[O-] [ergothioneine, (S)-α-Carboxy-N,N,N-trimethyl-2-mercapto-1H-imidazole-4-ethanaminium inner salt]",Solubility,"soluble in water, methanol and ethanol"

# Where a name gives a salt, the structure may show the parent alone.
